Test results as given in US11191771B2, “Combinations of PBD-based antibody drug conjugates with FLT3 inhibitors” (Seagen Inc., priority 2016, dated 2021).

System: FLT3/ITD MV4-11 xenografts
Test: Survival of FLT3/ITD MV4-11 xenografts
Assay type: in vivo
Settings: MV4-11 s.c. in SCID mice; quizartinib 0.4 mg/kg daily for 21 days by mouth; ADC 10 mcg/kg once i.p.; FIG. 5
Experimental: Five million MV4-11 cells were implanted subcutaneously in SCID mice. Tumor growth was monitored throughout the course of the study with bilateral vernier caliper measurements, and mean tumor volumes were calculated using the equation (0.5×[length×width^2]).
Mice with advanced tumor burden were sacrificed upon reaching tumor volumes of greater than 400 mm^3 or showing symptoms of hind limb paralysis, cranial swelling, and/or moribundity.

Structure (SMILES): CC(C)(C)c1cc(NC(=O)Nc2ccc(-c3cn4c(n3)sc3cc(OCCN5CCOCC5)ccc34)cc2)no1 [quizartinib, 1-(5-(tert-Butyl)isoxazol-3-yl)-3-(4-(7-(2-morpholinoethoxy)benzo[d]imidazo[2,1-b]thiazol-2-yl)phenyl)urea, reference compound]
- effect on progression / survival: induced delay of progression
